# Patent US9085531B2 (priority 2004, dated 2015)
# Sequences of proteins named here, by UniProt entry; tags and fusion partners are left off.
# UniProt P23975, whole entry, looked up: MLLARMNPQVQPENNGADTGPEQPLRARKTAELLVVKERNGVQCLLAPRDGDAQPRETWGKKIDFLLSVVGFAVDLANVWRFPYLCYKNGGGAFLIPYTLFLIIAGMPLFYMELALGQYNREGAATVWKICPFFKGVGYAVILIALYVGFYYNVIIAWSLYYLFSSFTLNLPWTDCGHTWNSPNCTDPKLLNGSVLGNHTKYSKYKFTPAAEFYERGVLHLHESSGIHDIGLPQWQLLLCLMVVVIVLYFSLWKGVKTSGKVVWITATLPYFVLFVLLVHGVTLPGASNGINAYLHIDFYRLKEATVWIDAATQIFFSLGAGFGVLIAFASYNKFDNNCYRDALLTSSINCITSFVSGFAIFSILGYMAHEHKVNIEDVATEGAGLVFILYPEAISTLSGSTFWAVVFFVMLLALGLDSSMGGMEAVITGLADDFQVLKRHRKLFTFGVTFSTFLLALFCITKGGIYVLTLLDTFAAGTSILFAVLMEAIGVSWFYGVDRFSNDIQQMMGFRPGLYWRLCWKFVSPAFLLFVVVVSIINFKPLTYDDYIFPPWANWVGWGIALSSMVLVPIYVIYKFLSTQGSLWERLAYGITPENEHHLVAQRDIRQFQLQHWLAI
# UniProt P31645, whole entry, looked up: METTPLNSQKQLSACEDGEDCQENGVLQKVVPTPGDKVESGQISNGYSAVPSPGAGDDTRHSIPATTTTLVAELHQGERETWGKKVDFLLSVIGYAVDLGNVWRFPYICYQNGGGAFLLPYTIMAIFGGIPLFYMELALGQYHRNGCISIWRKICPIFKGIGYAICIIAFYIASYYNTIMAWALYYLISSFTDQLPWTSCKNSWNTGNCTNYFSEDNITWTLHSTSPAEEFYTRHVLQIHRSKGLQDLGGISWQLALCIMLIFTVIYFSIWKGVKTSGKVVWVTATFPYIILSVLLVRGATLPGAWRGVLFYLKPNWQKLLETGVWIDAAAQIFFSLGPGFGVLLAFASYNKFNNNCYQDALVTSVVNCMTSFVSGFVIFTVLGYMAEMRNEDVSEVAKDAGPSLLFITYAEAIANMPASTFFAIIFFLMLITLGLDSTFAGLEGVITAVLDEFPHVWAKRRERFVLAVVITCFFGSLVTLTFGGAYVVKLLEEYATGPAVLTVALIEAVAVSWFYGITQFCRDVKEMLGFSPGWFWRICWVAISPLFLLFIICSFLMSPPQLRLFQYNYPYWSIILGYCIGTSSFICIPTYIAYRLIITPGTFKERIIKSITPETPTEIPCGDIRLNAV
# UniProt Q01959, whole entry, looked up: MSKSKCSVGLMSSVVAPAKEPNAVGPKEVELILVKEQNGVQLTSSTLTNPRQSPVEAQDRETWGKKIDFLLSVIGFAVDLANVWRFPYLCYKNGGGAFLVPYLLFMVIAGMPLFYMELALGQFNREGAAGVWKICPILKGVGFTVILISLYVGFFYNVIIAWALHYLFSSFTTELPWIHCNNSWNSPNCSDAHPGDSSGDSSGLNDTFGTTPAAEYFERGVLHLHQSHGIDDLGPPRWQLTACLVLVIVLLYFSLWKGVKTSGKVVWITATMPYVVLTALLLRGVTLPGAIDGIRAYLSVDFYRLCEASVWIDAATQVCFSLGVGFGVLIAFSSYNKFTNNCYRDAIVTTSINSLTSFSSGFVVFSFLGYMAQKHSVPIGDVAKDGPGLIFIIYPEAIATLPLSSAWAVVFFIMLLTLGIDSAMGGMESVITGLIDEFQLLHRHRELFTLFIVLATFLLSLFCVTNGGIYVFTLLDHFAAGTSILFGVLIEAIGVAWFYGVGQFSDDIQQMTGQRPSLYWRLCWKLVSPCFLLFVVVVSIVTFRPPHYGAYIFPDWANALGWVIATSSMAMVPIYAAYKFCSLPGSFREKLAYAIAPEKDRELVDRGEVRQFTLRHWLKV
# Like-named read-outs stand apart in the source and are kept apart here.
# Key:
# [1] = target: human NE transporter (NET) (Homo sapiens (Human), UniProt P23975); assay: Primary binding assay, NET ([3H] Nisoxetine)
# [2] = target: human 5HT transporter (5HTT, SERT) (Homo sapiens (Human), UniProt P31645); assay: Primary binding assay, 5HTT/SERT ([3H] Citolapram); settings: read-out: SERT Ki; Table 1; binding affinity, human transporter in HEK293E cells
# [3] = target: human DA transporter (DAT) (Homo sapiens (Human), UniProt Q01959); assay: Primary binding assay, DAT ([3H] WIN 35,428)
# [4] = read-out: NET Ki, Table 1, binding affinity, human transporter in HEK293E cells
# [5] = read-out: DAT Ki, Table 1, binding affinity, human transporter in HEK293E cells
# [6] = read-out: Ki, nM NET, Table 2, inhibition of radioligand binding at the human transporter
smiles,measurement,setting,value
CN1Cc2ccccc2C(c2cccs2)C1 (stereo not drawn),Ki,[1]; [4],3060 nM
Cc1ccc(C2CN(C)Cc3ccccc32)o1 (stereo not drawn),Ki,[2],7.53 µM
same,Ki,[3]; [5],5640 nM
same,Ki,[1]; [4],1640 nM
CN1Cc2ccccc2C(c2ccc3sncc3c2)C1 (stereo not drawn),Ki,[1]; [6],38.6 nM
CCN1Cc2ccccc2C(c2ccc3cn[nH]c3c2)C1 (stereo not drawn),Ki,[1]; [6],12.7 nM
Cc1cccc2c1C(c1ccc3ccccc3c1)CN(C)C2 (stereo not drawn),Ki,"[3]; read-out: Ki, nM DAT, Table 2, inhibition of radioligand binding at the human transporter",39.5 nM
COc1ccc(C2CN(C)Cc3ccccc32)cn1 (stereo not drawn),Ki,[2],0.47 µM
same,Ki,[3]; [5],2790 nM
